Screening results as filed in PubChem BioAssay.
Only some compounds are listed: those with a hit (about 4.2% of all), similar ones and a draw of the others.
MC4R antag cAMP = blocks human MC4R cAMP signaling. P32245. MC4R-expressing cells, MTII-stimulated cAMP, LANCE TR-FRET. inhibition, % at 6.5 µM. 360,000 tested, 0.48% active;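 active = inhibition above its plate's cutoff, the mean of tested wells on that plate plus 3 SD, cut at about 29% in these data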;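 note: 0% = Melanotan II alone and 100% = Melanotan II plus saturating MCL0020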
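System: U2OS-MC4R stable cell line; Technique: Eu-cAMP/anti-cAMP TR-FRET, emission 671 nm; Repeats: single well per compound; Also added: Melanotan II; Dosing: one concentration, 6.5 µM nominal; Schedule: 30-min compound, 1-h challenge, 1-h detection, room temperature.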
NALP1 yeast inh = inhibitors of NALP1 inflammasome in yeast | S. cerevisiae NALP1/ASC/caspase-1 growth, X-gal OD620, 72 h | inhibition, % at 10 µM | 280,000 tested, 0.61% active | AID 2071; in the data active = inhibition mostly above about 24%, no sharp cut-off; inactive = mostly below about 32%
UUG fidelity = modulators of yeast start codon fidelity, primary screen, whole organism, S. cerevisiae, single point, plate reader; S. cerevisiae UUG-firefly luciferase reporter, luminescence/redox ratio; activity score, % at 18.7 µM; 0.13% of 350,000 active; AID 602363, 2012;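 active = replicate mean at a twofold rise or more, about +100% in these data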;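 also: firefly luciferase made from a UUG start codon reports start codon fidelity; reporter light over untreated wells divided by growth signal over untreated wells; some hits fall short of that in this replicate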
ALR inh = inhibitors of human sulfhydryl oxidase ALR; AID 485317; inhibition, % (no concentration beside the values); purified ALR, DTT oxidation, H2O2 HRP-luminol luminescence; hit rate 3.8% among 290,000;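 active means mean and each replicate at 75% or more; inconclusive means only one of the two met; inactive means neither met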;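 further: stock transfer was 7.5 nL into about 7.5 µL; 0% = neutral wells and 100% = wells with inactivated enzyme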
HDAC3 inhib = human HDAC3 inhibition; recombinant HDAC3, fluorogenic peptide/trypsin coupled, fluorescence; inhibition, % at 8.3 µM; 320,000 tested, 0.15% active; AID 2718; in the data active = inhibition above about 26%, passing the limit was not always enough
MC4R barr agon = activates human MC4R beta-arrestin recruitment; P32245; U2OS MC4R beta-arrestin complementation, luminescence; percent of melanotan II response, DMSO zero; 360,000 tested, 0.98% active; activation, % at 8.9 µM;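 active = activation above a per-plate cutoff, the mean activation of sample wells on that plate plus 3 SD, cut at about 8% in these data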
MC4R barr ag = human MC4R beta-arrestin agonism confirmation | 2,400 tested, 31% active | shares compounds with MC4R barr agon | activation, % at 8.9 µM | U2OS MC4R beta-arrestin recruitment, luminescence; scaled DMSO 0%, Melanotan II 100%;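 active = mean activation across replicates above the hit cutoff set in the earlier primary screen, cut at about 8% in these data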
MOR-DOR barr ag = counter-screen for MC4R agonists: agonists of mu-delta opioid heterodimer | shares compounds with MC4R barr agon | U2OS PathHunter beta-arrestin, beta-gal luminescence; percent of deltorphin B response, DMSO zero | activation, % at 9.2 µM | 2,400 tested, 5.8% active;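 active = mean activation across replicates exceeds the hit threshold derived in the earlier primary screen, cut at about 18% in these data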;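 note: 100% = deltorphin B at 0.9 µM final and 0% = DMSO alone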
Active calls of the source: *.

How did O=C(CCc1nc2ccccc2c(=O)[nH]1)OCc1cccc(C(F)(F)F)c1 do in these assays?
MC4R antag cAMP: 4.8; NALP1 yeast inh: 18.1; UUG fidelity: -10.1; ALR inh: 0.1; HDAC3 inhib: -7.5; MC4R barr agon: 4.0

Results for CC(=O)c1cc2c(cc1NC(=O)c1ccc(C)cc1)OCCO2 ?
MC4R antag cAMP: 1.2; NALP1 yeast inh: 0.1; UUG fidelity: -3.6; ALR inh: 4.0; HDAC3 inhib: -7.5; MC4R barr agon: 9.6*; MC4R barr ag: 2.0; MOR-DOR barr ag: 1.2

Results for Cc1ccc(NCC(=O)N/N=C/c2cccc(Oc3ccccc3)c2)cc1 ?
MC4R antag cAMP: -0.7; NALP1 yeast inh: 31.2; UUG fidelity: -12.7; MC4R barr agon: 23.6*; MC4R barr ag: 3.7; MOR-DOR barr ag: 3.3

Results for CC(/C=C/C=C/c1ccccc1)=N/NC(=O)CNc1ccc(C)cc1 ?
MC4R antag cAMP: -17.6; NALP1 yeast inh: 5.8; UUG fidelity: -8.3; ALR inh: -3.1; HDAC3 inhib: -1.2; MC4R barr agon: 13.8*; MC4R barr ag: 0.8; MOR-DOR barr ag: 3.5

How did CC(/C=C/C=C/c1ccccc1)=N/NC(=O)C(O)c1ccccc1 (stereo not drawn) do in these assays?
MC4R antag cAMP: -7.7; UUG fidelity: 7.5; ALR inh: -1.7; HDAC3 inhib: 8.2; MC4R barr agon: 0.8

How did N#CCC(=O)N/N=C/c1cccc(Oc2ccccc2)c1 do in these assays?
MC4R antag cAMP: 4.2; NALP1 yeast inh: 11.5; ALR inh: -2.8; HDAC3 inhib: -0.7; MC4R barr agon: 0.3

Results for Cc1cccc(NCC(=O)N/N=C\c2cccc(Oc3ccccc3)c2)c1 ?
MC4R antag cAMP: -1.9; NALP1 yeast inh: 19.5; UUG fidelity: -17.6; ALR inh: 1.6; HDAC3 inhib: -2.5; MC4R barr agon: 11.9*; MC4R barr ag: 3.3; MOR-DOR barr ag: 3.6

How did Cc1ccc(S(=O)(=O)N(C)C[C@H]2Oc3ccc(NC(=O)Cc4ccccc4)cc3CC(=O)N([C@H](C)CO)C[C@@H]2C)cc1 do in these assays?
UUG fidelity: 6.1

Results for Cc1noc(C)c1S(=O)(=O)Nc1ccc2c(c1)C(=O)N([C@H](C)CO)C[C@@H](C)[C@H](CN(C)Cc1ccc3c(c1)OCO3)OCCCC[C@@H](C)O2 ?
UUG fidelity: 14.6

Results for COc1ccc(Cc2nn3c(-c4cc(OC)c(OC)c(OC)c4)nnc3s2)cc1 ?
MC4R antag cAMP: -38.5; UUG fidelity: -18.1; ALR inh: -16.8; HDAC3 inhib: 4.4; MC4R barr agon: -1.9

How did COc1cc(-c2nnc3sc(Cc4ccc(Cl)cc4)nn23)cc(OC)c1OC do in these assays?
MC4R antag cAMP: -65.6; UUG fidelity: -17.1; MC4R barr agon: 13.9*; MC4R barr ag: 10.8*; MOR-DOR barr ag: 2.6

How did COc1ccc(OCc2nn3c(-c4ccco4)nnc3s2)cc1 do in these assays?
MC4R antag cAMP: -3.9; NALP1 yeast inh: 22.7; UUG fidelity: -12.9; ALR inh: -1.9; HDAC3 inhib: -2.9; MC4R barr agon: -1.6

A draw from above in order of length of the SMILES, smallest number first:
How did COc1ccc(OCc2nn3c(-c4ccco4)nnc3s2)cc1 do in these assays?
MC4R antag cAMP: -3.9; NALP1 yeast inh: 22.7; UUG fidelity: -12.9; ALR inh: -1.9; HDAC3 inhib: -2.9; MC4R barr agon: -1.6

How did CC(/C=C/C=C/c1ccccc1)=N/NC(=O)C(O)c1ccccc1 (stereo not drawn) do in these assays?
MC4R antag cAMP: -7.7; UUG fidelity: 7.5; ALR inh: -1.7; HDAC3 inhib: 8.2; MC4R barr agon: 0.8

Results for CC(/C=C/C=C/c1ccccc1)=N/NC(=O)CNc1ccc(C)cc1 ?
MC4R antag cAMP: -17.6; NALP1 yeast inh: 5.8; UUG fidelity: -8.3; ALR inh: -3.1; HDAC3 inhib: -1.2; MC4R barr agon: 13.8*; MC4R barr ag: 0.8; MOR-DOR barr ag: 3.5

(next part)
How did COc1ccc(OCc2nn3c(-c4cccc(OC)c4)nnc3s2)cc1 do in these assays?
MC4R antag cAMP: 7.3; NALP1 yeast inh: 25.4; UUG fidelity: -26.7; ALR inh: -5.7; HDAC3 inhib: 1.4; MC4R barr agon: 10.5*; MC4R barr ag: 4.4; MOR-DOR barr ag: 2.7

What do the screens show for `CCOC(=O)C1(C)CCCCCN1C(=O)c1ccc(OC)c(C(F)(F)F)c1` (stereo not drawn)?
MC4R antag cAMP: 13.3; UUG fidelity: 2.9; MC4R barr agon: 10.3*; MC4R barr ag: 3.4; MOR-DOR barr ag: 5.1

Results for CCn1c2ccccc2c2cc(CNCc3ccc(OC)cc3OC)ccc21 ?
MC4R antag cAMP: 1.6; NALP1 yeast inh: 23.2*; ALR inh: -80.1; HDAC3 inhib: 4.8; MC4R barr agon: 41.2*; MC4R barr ag: 52.0*; MOR-DOR barr ag: 20.5*

How did Cc1ccccc1N1CCN(S(=O)(=O)c2nnc(NC(=O)c3ccco3)s2)CC1 do in these assays?
MC4R antag cAMP: 1.6; NALP1 yeast inh: 13.0; UUG fidelity: 2.0; ALR inh: 14.0; HDAC3 inhib: -2.0; MC4R barr agon: 0.9

Results for Cc1ccccc1N1CCN(S(=O)(=O)c2nnc(NC(=O)CC(C)C)s2)CC1 ?
MC4R antag cAMP: -1.3; NALP1 yeast inh: 16.2; UUG fidelity: -13.3; ALR inh: -19.2; MC4R barr agon: 12.9*; MC4R barr ag: 1.1; MOR-DOR barr ag: 6.1

Results for C[C@@H]1CN([C@H](C)CO)C(=O)Cc2cc(NS(=O)(=O)c3ccc(Cl)cc3)ccc2O[C@H]1CN(C)S(C)(=O)=O ?
UUG fidelity: -8.1

How did COc1c(C(=O)Nc2ccc(Br)cn2)ccc2ccccc12 do in these assays?
MC4R antag cAMP: -0.6; NALP1 yeast inh: 19.5; UUG fidelity: -25.2; ALR inh: -27.5; HDAC3 inhib: 0.9; MC4R barr agon: 12.0*; MC4R barr ag: -0.3; MOR-DOR barr ag: 3.7

Results for O=c1c2ccc(Cl)cc2nc2n1CC/C2=C\c1cccc(O)c1 ?
MC4R antag cAMP: 11.9; NALP1 yeast inh: 16.6; UUG fidelity: -6.8; ALR inh: 2.3; HDAC3 inhib: -1.1; MC4R barr agon: 3.6

What do the screens show for `CCOc1cc(/C=C2\CCn3c2nc2cc(Cl)ccc2c3=O)ccc1O`?
MC4R antag cAMP: 10.9; NALP1 yeast inh: -0.1; UUG fidelity: -5.7; ALR inh: -14.3; HDAC3 inhib: -9.7; MC4R barr agon: 12.0*; MC4R barr ag: 9.2*; MOR-DOR barr ag: 2.0

Results for COc1ccc(CCNC(=O)c2c(O)c3c([nH]c2=O)CCCC3)cc1 ?
MC4R antag cAMP: 15.8; NALP1 yeast inh: -12.0; UUG fidelity: -9.9; ALR inh: -17.1; HDAC3 inhib: 3.7; MC4R barr agon: 10.1*; MC4R barr ag: 8.6*; MOR-DOR barr ag: 4.8

What do the screens show for `CCCNC(=O)c1c(O)c2c([nH]c1=O)CCCC2`?
MC4R antag cAMP: 0.5; NALP1 yeast inh: 7.0; UUG fidelity: -20.9; ALR inh: 0.2; HDAC3 inhib: 1.0; MC4R barr agon: -1.2

How did COc1cc(/C=C2/C(=N)N3C=CSC3=NC2=O)ccc1OCCCOc1ccccc1C do in these assays?
MC4R antag cAMP: -28.9; NALP1 yeast inh: 23.1; UUG fidelity: 17.0; ALR inh: -16.5; HDAC3 inhib: -3.3; MC4R barr agon: 16.8*; MC4R barr ag: 12.1*; MOR-DOR barr ag: 11.4

How did C[C@H](NC(=O)[C@@H]1[C@@H](CO)[C@@H]2Cn3c(ccc(C4=CCCC4)c3=O)[C@@H]2N1C)c1ccccc1 do in these assays?
UUG fidelity: 23.9
